From patent publication US20100029657A1, “Bridged, Bicyclic Heterocyclic or Spiro Bicyclic Heterocyclic Derivatives of Pyrazolo[1, 5-A]Pyrimidines, Methods for Preparation and Uses Thereof” (Wyeth, priority 2008, published 2010) come the findings set out here.

The chains behind the UniProt entries cited, without tags or fusion partners.
UniProt P15056, whole entry: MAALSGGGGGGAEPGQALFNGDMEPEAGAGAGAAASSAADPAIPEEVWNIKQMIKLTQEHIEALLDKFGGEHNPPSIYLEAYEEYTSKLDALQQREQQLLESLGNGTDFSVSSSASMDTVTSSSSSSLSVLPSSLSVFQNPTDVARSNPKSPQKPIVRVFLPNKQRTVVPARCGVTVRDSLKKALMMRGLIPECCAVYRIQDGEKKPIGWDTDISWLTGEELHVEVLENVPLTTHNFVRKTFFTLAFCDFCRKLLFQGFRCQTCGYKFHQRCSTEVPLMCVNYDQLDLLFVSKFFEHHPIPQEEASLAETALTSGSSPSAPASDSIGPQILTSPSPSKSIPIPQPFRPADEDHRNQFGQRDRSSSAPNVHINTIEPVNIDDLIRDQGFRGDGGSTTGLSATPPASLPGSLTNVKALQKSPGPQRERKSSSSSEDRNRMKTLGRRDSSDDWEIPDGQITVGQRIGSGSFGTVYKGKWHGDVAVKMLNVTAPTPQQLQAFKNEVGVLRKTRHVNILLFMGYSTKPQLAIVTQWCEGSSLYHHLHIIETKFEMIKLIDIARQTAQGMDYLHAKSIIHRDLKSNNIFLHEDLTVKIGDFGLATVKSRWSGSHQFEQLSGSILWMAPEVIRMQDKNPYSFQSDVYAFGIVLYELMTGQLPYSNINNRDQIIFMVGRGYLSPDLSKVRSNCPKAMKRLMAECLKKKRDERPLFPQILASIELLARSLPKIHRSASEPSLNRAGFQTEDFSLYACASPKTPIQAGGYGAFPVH

The structures appear in SMILES notation.

The experiment addresses Flag/GST-tagged recombinant human B-Raf (Homo sapiens, UniProt P15056). In words: B-Raf kinase assay (phosphorylation of GST-MEK1, phospho-MEK1 antibody/Europium detection). Format: biochemical. Particulars: read-out: Mean IC50; B-Raf IC50 Data for compounds of Formula A.

For `COc1cccc(-c2c(-c3ccncc3)nn3c(-c4ccnc(N[C@H]5CN6CCC5CC6)c4)ccnc23)c1`, the IC50 (as a rule, the concentration that gives 50% inhibition) is greater than 1000 nM.
